Antibody variant affinities, Ab-14 light chain, assay 1

The target is the same throughout: PDVDLGDISGINAS, from the HR2 region of SARS-CoV-2 spike.

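Phage display of a naive human antibody library on the peptide gave the parent. Variants in AAYL50 differ from the parent at up to three CDR positions; double and triple changes were sampled at random. Affinity was read by AlphaSeq, a pooled yeast mating assay with surface-displayed partners. After mating in shaken culture at 30 °C for 16 h, diploids were selected and their barcode pairs sequenced. Each replicate has its own calibration line, from reference interactions of the BCL2 family. Each pool was mated in three replicate cultures.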

Each scFv is VH, the linker GGGGSGGGGSGGGGS, VL, as in the parent Ab-14, and differs from it in the CDRs of the light chain only.
VH: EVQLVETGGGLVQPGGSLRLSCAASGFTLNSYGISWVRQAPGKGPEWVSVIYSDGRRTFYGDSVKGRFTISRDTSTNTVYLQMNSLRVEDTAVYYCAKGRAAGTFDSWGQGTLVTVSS
VL: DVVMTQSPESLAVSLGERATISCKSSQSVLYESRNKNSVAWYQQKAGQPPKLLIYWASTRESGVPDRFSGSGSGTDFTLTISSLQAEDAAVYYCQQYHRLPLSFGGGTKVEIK

Variants are written as CDR1, CDR2 and CDR3 of the light chain (limits as in the source). Parent: KSSQSVLYESRNKNSVA, WASTRES, QQYHRLPLS.
Numbers give log10(Kd / nM), so 0 is 1 nM and 3 is 1 µM. Smaller is tighter.
Replicates are averaged; those with no signal do not enter the mean.
"n.d." marks a missing value. The strain was present, yet no cells mated with the target were sequenced in that replicate, which points to weak or no binding.
Background: pairings of library AAYL50 with three empty control strains gave a value in 18% of cases (median 4.19, 5th percentile 2.99). Values in that range, when seen in few replicates, are hard to tell from nonspecific mating. For each scFv, signals with the empty controls are counted beside the result, with their mean in brackets.

{"CDR-L1": "KSSQSVLYESRNKCDVA", "CDR-L2": "WASTPES", "CDR-L3": "QQYHRLPLS", "log10 Kd (nM) by replicate": "5.83 / 3.40 / n.d.", "log10 Kd (nM), mean": "4.61", "control signals": "3 of 9 (3.48)"}
{"CDR-L1": "KSSQSVAYYSRNKNSVA", "CDR-L2": "WASMRES", "CDR-L3": "QQYHRLPLS", "log10 Kd (nM) by replicate": "n.d. / 4.13 / n.d.", "log10 Kd (nM), mean": "4.13", "control signals": "5 of 9 (4.21)"}
{"CDR-L1": "KSSQSVLWESRNKNSPA", "CDR-L2": "WASTRGS", "CDR-L3": "QQYHRLPLS", "log10 Kd (nM) by replicate": "n.d. / n.d. / n.d.", "log10 Kd (nM), mean": "n.d.", "control signals": "0 of 9"}
{"CDR-L1": "KSSQSVLYESRNKTSVA", "CDR-L2": "WAKTRES", "CDR-L3": "QQYHRLPLS", "log10 Kd (nM) by replicate": "n.d. / n.d. / n.d.", "log10 Kd (nM), mean": "n.d.", "control signals": "2 of 9 (4.45)"}
{"CDR-L1": "KSSYSVLYESRNKNSVW", "CDR-L2": "WASERES", "CDR-L3": "QQYHRLPLS", "log10 Kd (nM) by replicate": "n.d. / n.d. / n.d.", "log10 Kd (nM), mean": "n.d.", "control signals": "0 of 9"}
{"CDR-L1": "KSSQSVLYRSRNKNSVA", "CDR-L2": "WAITRES", "CDR-L3": "QQYHRLPLS", "log10 Kd (nM) by replicate": "n.d. / n.d. / n.d.", "log10 Kd (nM), mean": "n.d.", "control signals": "0 of 9"}
{"CDR-L1": "KHSESVLYESRNKNSVA", "CDR-L2": "WASTRES", "CDR-L3": "QQYHQLPLS", "log10 Kd (nM) by replicate": "n.d. / n.d. / n.d.", "log10 Kd (nM), mean": "n.d.", "control signals": "2 of 9 (3.31)"}
{"CDR-L1": "KSSQSILYESRNKNSVA", "CDR-L2": "WASTRES", "CDR-L3": "QQYHRDPLS", "log10 Kd (nM) by replicate": "n.d. / n.d. / n.d.", "log10 Kd (nM), mean": "n.d.", "control signals": "1 of 9 (2.59)"}
{"CDR-L1": "KVSQSVLYESRNKNSVA", "CDR-L2": "YASTRES", "CDR-L3": "QQYARLPLS", "log10 Kd (nM) by replicate": "-0.29 / 0.07 / -0.15", "log10 Kd (nM), mean": "-0.12", "control signals": "2 of 9 (4.03)"}
{"CDR-L1": "KSSQPVLYESRNKRSVA", "CDR-L2": "WASTRES", "CDR-L3": "QQIHRLPLS", "log10 Kd (nM) by replicate": "n.d. / 3.77 / n.d.", "log10 Kd (nM), mean": "3.77", "control signals": "0 of 9"}
{"CDR-L1": "KSFQSVLYEFRNKNSVA", "CDR-L2": "WASTRES", "CDR-L3": "QQYHKLPLS", "log10 Kd (nM) by replicate": "5.73 / 3.61 / 4.80", "log10 Kd (nM), mean": "4.71", "control signals": "0 of 9"}
{"CDR-L1": "KSSQHVLYESRTKNSVA", "CDR-L2": "WASTRES", "CDR-L3": "QQYHRWPLS", "log10 Kd (nM) by replicate": "2.11 / 3.42 / 2.03", "log10 Kd (nM), mean": "2.52", "control signals": "2 of 9 (5.52)"}
{"CDR-L1": "KSSQSVLYESRNKNSSA", "CDR-L2": "WASTRES", "CDR-L3": "QQYHRLPLS", "log10 Kd (nM) by replicate": "n.d. / n.d. / n.d.", "log10 Kd (nM), mean": "n.d.", "control signals": "1 of 9 (3.01)"}
{"CDR-L1": "KSSQSVLYGSRNKNSVA", "CDR-L2": "WASTRES", "CDR-L3": "QQYHPLPLS", "log10 Kd (nM) by replicate": "n.d. / n.d. / n.d.", "log10 Kd (nM), mean": "n.d.", "control signals": "3 of 9 (3.70)"}
{"CDR-L1": "KSSQSVLYEPRNKNSVA", "CDR-L2": "WISTRES", "CDR-L3": "QTYHRLPLS", "log10 Kd (nM) by replicate": "n.d. / 3.27 / n.d.", "log10 Kd (nM), mean": "3.27", "control signals": "1 of 9 (3.36)"}
{"CDR-L1": "KSSQSILYESRNYNSVA", "CDR-L2": "WASTRES", "CDR-L3": "QQYHRLPFS", "log10 Kd (nM) by replicate": "0.73 / 0.87 / 0.80", "log10 Kd (nM), mean": "0.80", "control signals": "5 of 9 (4.03)"}
{"CDR-L1": "KSSQSVLYESRNKNSVH", "CDR-L2": "WASTRES", "CDR-L3": "QQYHRDILS", "log10 Kd (nM) by replicate": "4.52 / n.d. / 3.72", "log10 Kd (nM), mean": "4.12", "control signals": "4 of 9 (3.83)"}
{"CDR-L1": "ISSQSVLYESRNKISLA", "CDR-L2": "WASTRES", "CDR-L3": "QQYHRLPLS", "log10 Kd (nM) by replicate": "4.83 / n.d. / n.d.", "log10 Kd (nM), mean": "4.83", "control signals": "1 of 9 (4.19)"}
{"CDR-L1": "KSLQSVLYLSNNKNSVA", "CDR-L2": "WASTRES", "CDR-L3": "QQYHRLPLS", "log10 Kd (nM) by replicate": "n.d. / n.d. / n.d.", "log10 Kd (nM), mean": "n.d.", "control signals": "0 of 9"}
{"CDR-L1": "KSSQSVLYESRNKNSVA", "CDR-L2": "WAATRES", "CDR-L3": "VQYHRLPLS", "log10 Kd (nM) by replicate": "1.17 / 1.60 / 1.68", "log10 Kd (nM), mean": "1.48", "control signals": "0 of 9"}
{"CDR-L1": "KSSQSVLYEERNKNSVA", "CDR-L2": "WASTRRS", "CDR-L3": "QQYHRLPLS", "log10 Kd (nM) by replicate": "3.43 / 2.20 / 2.86", "log10 Kd (nM), mean": "2.83", "control signals": "0 of 9"}
{"CDR-L1": "KSSQSVLYESRNVNTVA", "CDR-L2": "WCSTRES", "CDR-L3": "QQYHRLPLS", "log10 Kd (nM) by replicate": "n.d. / 3.43 / 5.22", "log10 Kd (nM), mean": "4.33", "control signals": "0 of 9"}
{"CDR-L1": "KMSQSVLYEMRNKNSVA", "CDR-L2": "WAVTRES", "CDR-L3": "QQYHRLPLS", "log10 Kd (nM) by replicate": "0.70 / 0.85 / 0.75", "log10 Kd (nM), mean": "0.77", "control signals": "3 of 9 (4.51)"}
{"CDR-L1": "KSSQSVLYESRNKNSVA", "CDR-L2": "KASTRES", "CDR-L3": "QQMHRLRLS", "log10 Kd (nM) by replicate": "0.40 / 0.61 / 1.00", "log10 Kd (nM), mean": "0.67", "control signals": "1 of 9 (3.43)"}
{"CDR-L1": "KSSQSVMYESRNKNSVH", "CDR-L2": "WASTRES", "CDR-L3": "KQYHRLPLS", "log10 Kd (nM) by replicate": "n.d. / n.d. / n.d.", "log10 Kd (nM), mean": "n.d.", "control signals": "0 of 9"}
{"CDR-L1": "KRSQSVLYISRNKNSVA", "CDR-L2": "WASTRES", "CDR-L3": "GQYHRLPLS", "log10 Kd (nM) by replicate": "n.d. / 3.62 / n.d.", "log10 Kd (nM), mean": "3.62", "control signals": "2 of 9 (3.47)"}
{"CDR-L1": "KSSQEVLYESRNKNSVA", "CDR-L2": "WASTREE", "CDR-L3": "QQYHRLLLS", "log10 Kd (nM) by replicate": "0.36 / 0.60 / 0.53", "log10 Kd (nM), mean": "0.49", "control signals": "0 of 9"}
{"CDR-L1": "KRSQIVLYESRNKNSVA", "CDR-L2": "WASTRES", "CDR-L3": "QFYHRLPLS", "log10 Kd (nM) by replicate": "n.d. / n.d. / n.d.", "log10 Kd (nM), mean": "n.d.", "control signals": "0 of 9"}

The first 4 variants above that were never detected:

CDR-L1	CDR-L2	CDR-L3	log10 Kd (nM) by replicate	log10 Kd (nM), mean	control signals
KSSQSVLWESRNKNSPA	WASTRGS	QQYHRLPLS	n.d. / n.d. / n.d.	n.d.	0 of 9
KSSQSVLYESRNKTSVA	WAKTRES	QQYHRLPLS	n.d. / n.d. / n.d.	n.d.	2 of 9 (4.45)
KSSYSVLYESRNKNSVW	WASERES	QQYHRLPLS	n.d. / n.d. / n.d.	n.d.	0 of 9
KSSQSVLYRSRNKNSVA	WAITRES	QQYHRLPLS	n.d. / n.d. / n.d.	n.d.	0 of 9

In this assay the parent's reference entry averaged 0.65; its copy inside this library read 1.68.

Reference: Engelhart et al. 2022, doi:10.1038/s41597-022-01779-4. File: FLAb, binding data.